Data from patent US12012615B2, “Method of making induced pluripotent stem cells using p53 inhibitors” (Kyoto University, priority 2008, dated 2024).

System: HDFs
Assay: Human iPS cell generation with MDM2 or RB shRNA co-transduction
Format: cell-based
Details: four or three reprogramming factors; retroviral vectors; n=4
Source text: FIGS. 21A and 21B show effects of MDM2 co-transduction on iPS generation from HDFs by the four or three reprogramming factors. The retroviral vector expressing MDM2, p53 shRNA or RB shRNA, or control vector was transduced into HDFs together with the four factors (FIG. 21A) or three factors (FIG. 21B). Shown are the numbers of iPS colonies from 5×10^4 cells of HDF.
The effects of MDM2 that binds with and inhibits p53 were examined. Specifically, human MDM2 gene (SEQ ID NO:41) was co-introduced with the four or three reprogramming factors into HDFs using retroviral vectors, and iPS colonies were formed in the same manner as in Example 7 (n=4).

Substance: MDM2: human MDM2 gene (SEQ ID NO:41), binds with and inhibits p53, introduced by retroviral vector
- establishment efficiency of iPS cells: improved
